# Assays:
# Sequences of proteins named here, by UniProt entry; tags and fusion partners are left off. Residues count along the entry.
# UniProt P08246, 30-247 limits assumed: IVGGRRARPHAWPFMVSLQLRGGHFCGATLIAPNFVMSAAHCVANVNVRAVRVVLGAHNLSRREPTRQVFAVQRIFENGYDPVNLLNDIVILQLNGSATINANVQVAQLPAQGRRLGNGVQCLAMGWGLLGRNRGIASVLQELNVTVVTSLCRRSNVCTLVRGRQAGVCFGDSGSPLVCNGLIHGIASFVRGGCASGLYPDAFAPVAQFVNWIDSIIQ
# [1] = system: elastase-induced hemmorrhage; assay: Elastase-induced hemmorrhage model in hamster, oral activity; details: * = significant at P < .05
# [2] = target: human neutrophil elastase (Homo sapiens, UniProt P08246); assay: In vitro inhibition of human elastase with chromophoric peptide substrate (Ki)
# [3] = system: elastase-induced hemmorrhage; assay: Elastase-induced hemmorrhage model in rats, oral activity; details: rat
# [4] = Table 2A, human neutrophil elastase, NMeOSucAlaAlaProVal-pNA as substrate
# [5] = dose 50 mg/kg, * = significant at P < .05
# [6] = Table 2, human neutrophil elastase, NMeOSucAlaAlaProVal-pNA as substrate
compound,measurement,setting,value
CC(C)C(NC(=O)[C@@H]1CCCN1C(=O)[C@@H](NC(=O)c1ccc(C(=O)N(C)CCN2CCOCC2)cc1)C(C)C)C(=O)C(F)(F)C(F)(F)F (stereo partly drawn),Oral Activity % Inhibition,[1]; dose 25 mg/kg,17%
same,Ki,[2]; Table 3,19 nM
CC(C)C(NC(=O)[C@@H]1Cc2ccccc2CN1C(=O)[C@@H](NC(=O)c1ccc(C(=O)N2CCOCC2)cc1)C(C)C)C(=O)C(F)(F)C(F)(F)F (stereo partly drawn),Ki,[2]; [4],120 nM
CC(C)C(NC(=O)[C@@H]1CCCN1C(=O)[C@@H](NC(=O)N1CCOCC1)C(C)C)C(=O)C(F)(F)C(F)(F)F (stereo partly drawn),Oral Activity % Inhibition,"[3]; dose 10 mg/kg, * = significant at P < .05",30%
same,Oral Activity % Inhibition,"[3]; dose 25 mg/kg, * = significant at P < .05",61%
same,Oral Activity % Inhibition,[3]; [5],70%
same,Oral Activity % Inhibition,"[3]; dose 100 mg/kg, * = significant at P < .05",79%
CC(C)C(NC(=O)[C@@H]1CCCN1C(=O)[C@@H](NC(=O)c1ccc(NC(=O)N2CCOCC2)cc1)C(C)C)C(=O)C(F)(F)C(F)(F)F (stereo partly drawn),Oral Activity % Inhibition,[3]; doses printed 50 and 10 mg/kg but only one value,26%
CC(C)C(NC(=O)C1Cc2ccccc2CN1C(=O)[C@@H](NC(=O)c1ccc(C(=O)N2CCOCC2)cc1)C(C)C)C(=O)C(F)(F)C(F)(F)F (stereo partly drawn),Ki,[2]; [4],100 nM
CC(C)C(NC(=O)[C@@H]1CCCN1C(=O)[C@@H](NC(=O)N(C)C)C(C)C)C(=O)C(F)(F)C(F)(F)F (stereo partly drawn),Oral Activity % Inhibition,[3]; [5],70%
CC(C)C(NC(=O)[C@@H]1CCCN1C(=O)[C@@H](NC(=O)C1CCOCC1)C(C)C)C(=O)C(F)(F)C(F)(F)F (stereo partly drawn),Oral Activity % Inhibition,[3]; [5],71%
same,Ki,[2]; [6],60 nM
CC(C)C(NC(=O)[C@@H]1CCCN1C(=O)[C@@H](NC(=O)CN1CCOCC1)C(C)C)C(=O)C(F)(F)C(F)(F)F (stereo partly drawn),Oral Activity % Inhibition,"[3]; dose 10 mg/kg, * = significant at P < .05, tested form: HCl",39%
same,Oral Activity % Inhibition,"[3]; dose 50 mg/kg, * = significant at P < .05, tested form: HCl",77%
CC(C)C(NC(=O)[C@@H]1CCCN1C(=O)[C@@H](NC(=O)c1ccc(C(=O)N2CCN(C(=O)N3CCOCC3)CC2)cc1)C(C)C)C(=O)C(F)(F)C(F)(F)F (stereo partly drawn),Oral Activity % Inhibition,[1]; dose 25 mg/kg,31%
CC(C)C(NC(=O)[C@@H]1CCCN1C(=O)[C@@H](NC(=O)c1ccco1)C(C)C)C(=O)C(F)(F)C(F)(F)F (stereo partly drawn),Oral Activity % Inhibition,[3]; [5],44%
CC(C)C(NC(=O)[C@@H]1CSCN1C(=O)[C@@H](NC(=O)c1ccc(C(=O)N2CCOCC2)cc1)C(C)C)C(=O)C(F)(F)C(F)(F)F (stereo partly drawn),Ki,[2]; [4],70 nM
CC(C)C(NC(=O)[C@@H]1CCCN1C(=O)[C@@H](NC(=O)c1ccc(C(=O)N2CCOCC2)cc1)C(C)C)C(=O)C(F)(F)C(F)(F)F (stereo partly drawn),Oral Activity % Inhibition,[1]; dose 10 mg/kg,25%
same,Oral Activity % Inhibition,[1]; dose 25 mg/kg,56%
same,Oral Activity % Inhibition,[1]; dose 50 mg/kg,74%
same,Ki,[2]; [6],20 nM
same,Ki,[2]; Table 3,20 nM
CC(C)C(NC(=O)[C@@H]1CCCN1C(=O)[C@@H](NC(=O)c1ccc(C(=O)N2CCOCC2)nc1)C(C)C)C(=O)C(F)(F)C(F)(F)F (stereo partly drawn),Oral Activity % Inhibition,[1]; dose 25 mg/kg,61%
CC(C)C(NC(=O)[C@@H]1CCCN1C(=O)[C@@H](NC(=O)CC(=O)N1CCOCC1)C(C)C)C(=O)C(F)(F)C(F)(F)F (stereo partly drawn),Oral Activity % Inhibition,[3]; doses printed 25 and 10 mg/kg but only one value,41%
